Measured values taken from publication PMC8327961, “Nse5/6 inhibits the Smc5/6 ATPase and modulates DNA substrate binding” (The EMBO Journal, 2021).

Amino acid sequences for entries named in this document (tags omitted). A change or cut given only in a name is not applied to a line headed by its entry.
UniProt Q08204: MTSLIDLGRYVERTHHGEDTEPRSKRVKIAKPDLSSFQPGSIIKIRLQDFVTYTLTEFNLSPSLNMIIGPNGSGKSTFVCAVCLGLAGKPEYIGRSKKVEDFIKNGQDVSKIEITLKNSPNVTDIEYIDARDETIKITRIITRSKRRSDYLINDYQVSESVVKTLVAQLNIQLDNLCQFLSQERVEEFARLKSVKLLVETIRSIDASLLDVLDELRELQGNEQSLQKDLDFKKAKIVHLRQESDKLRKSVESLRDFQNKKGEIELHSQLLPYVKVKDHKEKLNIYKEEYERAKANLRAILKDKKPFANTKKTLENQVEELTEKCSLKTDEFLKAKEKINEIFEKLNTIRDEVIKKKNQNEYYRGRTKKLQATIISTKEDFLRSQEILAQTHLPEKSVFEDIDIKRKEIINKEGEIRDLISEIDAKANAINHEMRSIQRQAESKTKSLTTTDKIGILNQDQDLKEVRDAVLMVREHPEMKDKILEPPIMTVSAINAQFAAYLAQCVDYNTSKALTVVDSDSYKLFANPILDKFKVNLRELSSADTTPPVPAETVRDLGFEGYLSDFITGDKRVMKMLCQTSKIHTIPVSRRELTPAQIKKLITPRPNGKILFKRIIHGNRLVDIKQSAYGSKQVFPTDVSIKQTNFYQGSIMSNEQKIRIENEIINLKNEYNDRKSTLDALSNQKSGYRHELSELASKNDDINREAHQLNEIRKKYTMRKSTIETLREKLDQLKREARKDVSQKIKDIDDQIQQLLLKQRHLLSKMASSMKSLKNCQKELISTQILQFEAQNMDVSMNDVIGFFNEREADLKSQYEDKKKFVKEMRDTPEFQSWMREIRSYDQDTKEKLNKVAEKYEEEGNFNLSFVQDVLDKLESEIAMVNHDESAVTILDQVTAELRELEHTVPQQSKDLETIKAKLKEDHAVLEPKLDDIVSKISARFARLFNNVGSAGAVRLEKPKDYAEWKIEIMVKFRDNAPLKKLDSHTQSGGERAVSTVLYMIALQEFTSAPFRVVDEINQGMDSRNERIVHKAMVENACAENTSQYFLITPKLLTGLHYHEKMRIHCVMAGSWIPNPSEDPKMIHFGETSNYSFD
UniProt Q12749: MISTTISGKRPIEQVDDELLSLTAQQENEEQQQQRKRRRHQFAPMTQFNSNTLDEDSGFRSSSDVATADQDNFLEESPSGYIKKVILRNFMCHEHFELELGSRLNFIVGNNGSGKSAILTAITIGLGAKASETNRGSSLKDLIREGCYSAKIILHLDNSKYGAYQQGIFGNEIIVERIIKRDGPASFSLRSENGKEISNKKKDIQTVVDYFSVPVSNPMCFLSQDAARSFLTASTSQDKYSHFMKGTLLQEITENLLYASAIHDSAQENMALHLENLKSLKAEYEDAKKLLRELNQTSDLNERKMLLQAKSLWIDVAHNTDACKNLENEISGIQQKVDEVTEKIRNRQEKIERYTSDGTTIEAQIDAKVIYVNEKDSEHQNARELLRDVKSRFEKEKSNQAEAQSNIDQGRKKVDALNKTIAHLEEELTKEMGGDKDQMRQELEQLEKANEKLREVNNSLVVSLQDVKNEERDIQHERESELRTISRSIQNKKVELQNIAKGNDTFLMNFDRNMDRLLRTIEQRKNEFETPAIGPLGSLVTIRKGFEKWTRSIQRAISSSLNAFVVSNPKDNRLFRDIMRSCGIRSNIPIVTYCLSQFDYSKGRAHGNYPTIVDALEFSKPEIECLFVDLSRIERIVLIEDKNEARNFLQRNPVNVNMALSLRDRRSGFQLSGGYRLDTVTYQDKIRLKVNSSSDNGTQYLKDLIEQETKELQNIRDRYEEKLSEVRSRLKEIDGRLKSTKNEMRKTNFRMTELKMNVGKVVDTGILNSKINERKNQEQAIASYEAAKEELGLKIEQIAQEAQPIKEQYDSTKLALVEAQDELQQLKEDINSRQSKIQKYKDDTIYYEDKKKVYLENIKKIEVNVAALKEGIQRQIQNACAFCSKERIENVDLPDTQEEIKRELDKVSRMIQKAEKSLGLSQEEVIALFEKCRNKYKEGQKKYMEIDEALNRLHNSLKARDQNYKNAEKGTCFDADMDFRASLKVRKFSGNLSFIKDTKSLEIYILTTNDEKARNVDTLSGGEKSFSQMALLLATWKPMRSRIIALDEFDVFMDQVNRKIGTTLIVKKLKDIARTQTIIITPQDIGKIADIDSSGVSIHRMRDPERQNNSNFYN

Biological target: Smc5/6 octamer (holo-complex; hexamer plus Nse5/6) (Saccharomyces cerevisiae, UniProt Q08204+Q12749)
Experiment: pyruvate kinase/lactate dehydrogenase coupled ATPase assay, Michaelis-Menten fit
Details: no DNA; 150 nM octamer; 10 mM Hepes-KOH pH 7.5, 150 mM potassium acetate, 2 mM MgCl2, 20% glycerol; 25 °C

For `Nc1ncnc2c1ncn2[C@@H]1O[C@H](COP(=O)(O)OP(=O)(O)OP(=O)(O)O)[C@@H](O)[C@H]1O` [ATP], which Km is on record?
Its Km is “The curves were fitted to Michaelis–Menten equation, and Km and kcat values were determined”.
